From article PMC7575681 (EJNMMI Research, 2020)
“And” between values parts separate entries of the source, which are not always exact repeats. Equal values may be shown once. Read-outs that look alike come from different tables or passages of the source.

Legend:
[1] = room temperature
[2] = for excretion rate: decay-correction to injection time
[3] = final product solution
[4] = final product solution; remark: listed apart in the source
[5] = ICR mice urine, about 85 min, HPLC

Substance: ^18F-deoxy-thiamine
- RCP ([1]; 0 h after synthesis): 97.68%
- RCP ([1]; 2 h after synthesis): 96.89%
- RCP ([1]; 4 h after synthesis): 96.11%
- RCP ([1]; 6 h after synthesis): > 95% and 95.03%
- RCP ([1]; 8 h after synthesis): 94.01%
- RCP ([1]; 10 h after synthesis): > 93% and 93.38%
- radioactivity in collected urine, of total injected radioactivity ([2]; ICR mice (n = 3), about 85 min after injection, decay-correction, mean ± SEM): 34.16 ± 3.84%
- RCP of renal excreted tracer [2, 5]: 94.53 ± 0.81%
- unknown trace substance ahead of the tracer in urine [2, 5]: 3.30 ± 0.60 % in RCP
- share in urine metabolized to more polar compounds ([2]; ICR mice urine, after 85 min in vivo): 3.37%
- percentage of intact tracer (prototype form) in urine ([2]; ICR mice urine, within 85 min after vein injection): 96.63%
- excretion rate ([2]; ICR mouse 1, 85 mins): 35.99%
- renal excreted radioactivity 85 mins after injection ([2]; ICR mouse 1, injected 7.74 MBq): 2.79 MBq
- excretion rate ([2]; ICR mouse 2, 85 mins): 26.78%
- renal excreted radioactivity 85 mins after injection ([2]; ICR mouse 2, injected 13.71 MBq): 3.67 MBq
- excretion rate ([2]; ICR mouse 3, 85 mins): 39.70%
- renal excreted radioactivity 85 mins after injection ([2]; ICR mouse 3, injected 16.11 MBq): 6.39 MBq
- Bacteria test [3]: Negative
- Endotoxin test [4]: Negative
